Where two headings read alike, the source gives them in different places.
Tests used:
[1] = biological target: EGFR D19TMCS (del19/T790M/C797S) (Homo sapiens, UniProt P00533, C797S/DEL746-750/T790M); experiment: Biochemical EGFR kinase assay (Lance Ultra TR-FRET), triple mutant del19/T790M/C797S
[2] = biological target: EGFR LRTMCS (L858R/T790M/C797S) (Homo sapiens, UniProt P00533, C797S/L858R/T790M); experiment: Biochemical EGFR kinase assay (Lance Ultra TR-FRET), triple mutant L858R/T790M/C797S
[3] = biological target: EGFR D19CS (del19/C797S) (Homo sapiens, UniProt P00533, C797S/DEL746-750); experiment: Biochemical EGFR kinase assay (Lance Ultra TR-FRET), double mutant del19/C797S
[4] = biological target: EGFR LRCS (L858R/C797S) (Homo sapiens, UniProt P00533, C797S/L858R); experiment: Biochemical EGFR kinase assay (Lance Ultra TR-FRET), double mutant L858R/C797S
[5] = biological target: EGFR WT (Homo sapiens, UniProt P00533); experiment: Biochemical EGFR kinase assay (Lance Ultra TR-FRET), wildtype
[6] = read-out: EGFR D19TMCS IC50, ATP 1 mM
[7] = read-out: EGFR D19TMCS IC50, ATP Km
[8] = read-out: EGFR LRTMCS IC50, ATP 1 mM
[9] = read-out: EGFR LRTMCS IC50, ATP Km
[10] = read-out: EGFR D19CS IC50, ATP 1 mM
[11] = read-out: EGFR D19CS IC50, ATP Km
[12] = read-out: EGFR LRCS IC50, ATP 1 mM
[13] = read-out: EGFR LRCS IC50, ATP Km
[14] = read-out: EGFR WT IC50, ATP 1 mM
[15] = read-out: IC50, EGFR D19TMCS, Km, ATP at Km, EGFR del19/T790M/C797S
[16] = read-out: IC50, EGFR LRTMCS, 1 mM, ATP 1 mM, EGFR L858R/T790M/C797S
[17] = read-out: IC50, EGFR LRTMCS, Km, ATP at Km, EGFR L858R/T790M/C797S
[18] = read-out: IC50, EGFR-D19CS, 1 mM, ATP 1 mM, EGFR del19/C797S
[19] = read-out: IC50, EGFR-D19CS, Km, ATP at Km, EGFR del19/C797S
[20] = read-out: IC50, EGFR-LRCS, 1 mM, ATP 1 mM, EGFR L858R/C797S
[21] = read-out: IC50, EGFR-LRCS, Km, ATP at Km, EGFR L858R/C797S
[22] = read-out: IC50, EGFR WT, 1 mM, ATP 1 mM, EGFR wildtype
[23] = read-out: IC50, EGFR WT, Km, ATP at Km, EGFR wildtype

Protein sequences, listed by entry. Tags and fused reporters are not part of them. Lines headed by an entry give the natural chain unless they say otherwise; changes in a name come on top. Chains listed by the source or under a name are the forms on record and can include a tag or linker. Residues count along the entry.
UniProt P00533, 25-1210 limits assumed: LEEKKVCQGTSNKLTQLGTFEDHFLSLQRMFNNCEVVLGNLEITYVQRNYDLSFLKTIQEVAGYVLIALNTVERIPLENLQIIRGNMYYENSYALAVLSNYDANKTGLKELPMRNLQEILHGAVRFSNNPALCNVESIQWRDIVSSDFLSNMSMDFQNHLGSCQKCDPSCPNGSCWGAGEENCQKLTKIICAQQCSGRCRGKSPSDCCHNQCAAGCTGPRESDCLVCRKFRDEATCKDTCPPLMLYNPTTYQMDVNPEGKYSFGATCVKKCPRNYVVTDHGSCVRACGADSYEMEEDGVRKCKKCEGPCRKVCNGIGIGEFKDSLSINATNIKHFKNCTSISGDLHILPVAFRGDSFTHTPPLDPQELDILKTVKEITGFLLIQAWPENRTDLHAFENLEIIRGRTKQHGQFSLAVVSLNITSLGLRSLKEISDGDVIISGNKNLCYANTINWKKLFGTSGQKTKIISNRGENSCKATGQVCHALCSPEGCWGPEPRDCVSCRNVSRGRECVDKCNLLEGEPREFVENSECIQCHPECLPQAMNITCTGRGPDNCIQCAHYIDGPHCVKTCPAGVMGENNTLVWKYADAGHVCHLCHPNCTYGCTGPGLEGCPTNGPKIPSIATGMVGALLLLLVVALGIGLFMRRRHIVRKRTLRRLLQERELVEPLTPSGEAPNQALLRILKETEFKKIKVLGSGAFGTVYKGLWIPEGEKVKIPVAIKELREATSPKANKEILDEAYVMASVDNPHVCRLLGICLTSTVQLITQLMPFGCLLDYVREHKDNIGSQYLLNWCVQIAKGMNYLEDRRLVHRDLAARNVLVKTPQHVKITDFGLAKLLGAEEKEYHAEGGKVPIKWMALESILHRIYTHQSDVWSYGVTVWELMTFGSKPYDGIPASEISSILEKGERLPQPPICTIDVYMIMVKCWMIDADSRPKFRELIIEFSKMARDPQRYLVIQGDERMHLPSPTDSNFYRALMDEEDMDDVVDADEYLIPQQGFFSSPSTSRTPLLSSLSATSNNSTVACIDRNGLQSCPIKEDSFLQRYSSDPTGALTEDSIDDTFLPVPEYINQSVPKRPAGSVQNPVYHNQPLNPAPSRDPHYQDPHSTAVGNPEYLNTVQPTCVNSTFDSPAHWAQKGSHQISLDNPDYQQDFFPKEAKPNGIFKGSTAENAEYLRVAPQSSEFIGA
UniProt P00533, 25-1210 C797S/L858R limits assumed: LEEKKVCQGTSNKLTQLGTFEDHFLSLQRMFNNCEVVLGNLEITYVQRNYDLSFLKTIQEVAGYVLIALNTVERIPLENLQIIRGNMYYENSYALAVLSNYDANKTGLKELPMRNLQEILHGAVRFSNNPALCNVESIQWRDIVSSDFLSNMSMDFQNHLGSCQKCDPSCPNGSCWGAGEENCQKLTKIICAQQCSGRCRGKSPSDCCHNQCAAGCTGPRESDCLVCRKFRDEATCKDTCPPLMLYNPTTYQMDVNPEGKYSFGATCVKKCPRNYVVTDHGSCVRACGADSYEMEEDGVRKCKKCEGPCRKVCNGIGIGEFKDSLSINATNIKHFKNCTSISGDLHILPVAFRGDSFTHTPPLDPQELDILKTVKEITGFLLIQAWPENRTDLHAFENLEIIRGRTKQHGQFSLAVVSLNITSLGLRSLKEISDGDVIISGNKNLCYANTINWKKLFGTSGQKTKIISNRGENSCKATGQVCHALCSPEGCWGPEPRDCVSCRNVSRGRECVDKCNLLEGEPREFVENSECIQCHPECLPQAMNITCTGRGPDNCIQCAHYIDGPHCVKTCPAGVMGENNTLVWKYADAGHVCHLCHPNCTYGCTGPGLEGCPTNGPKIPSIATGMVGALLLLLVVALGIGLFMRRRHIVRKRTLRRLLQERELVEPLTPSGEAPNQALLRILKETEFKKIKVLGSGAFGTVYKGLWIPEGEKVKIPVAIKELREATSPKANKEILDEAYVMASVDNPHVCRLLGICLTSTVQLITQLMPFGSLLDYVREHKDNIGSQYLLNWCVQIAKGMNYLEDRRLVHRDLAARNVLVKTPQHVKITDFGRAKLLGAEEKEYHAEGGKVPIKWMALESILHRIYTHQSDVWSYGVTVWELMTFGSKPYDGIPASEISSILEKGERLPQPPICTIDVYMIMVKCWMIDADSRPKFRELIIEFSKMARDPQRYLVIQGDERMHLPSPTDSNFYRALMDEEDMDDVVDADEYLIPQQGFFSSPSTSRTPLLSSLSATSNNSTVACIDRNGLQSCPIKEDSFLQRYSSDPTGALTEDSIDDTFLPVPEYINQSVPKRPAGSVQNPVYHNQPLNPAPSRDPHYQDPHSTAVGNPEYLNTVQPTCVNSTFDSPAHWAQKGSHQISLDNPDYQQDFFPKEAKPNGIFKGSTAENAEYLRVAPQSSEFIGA
UniProt P00533, 25-1210 T790M/C797S/L858R limits assumed: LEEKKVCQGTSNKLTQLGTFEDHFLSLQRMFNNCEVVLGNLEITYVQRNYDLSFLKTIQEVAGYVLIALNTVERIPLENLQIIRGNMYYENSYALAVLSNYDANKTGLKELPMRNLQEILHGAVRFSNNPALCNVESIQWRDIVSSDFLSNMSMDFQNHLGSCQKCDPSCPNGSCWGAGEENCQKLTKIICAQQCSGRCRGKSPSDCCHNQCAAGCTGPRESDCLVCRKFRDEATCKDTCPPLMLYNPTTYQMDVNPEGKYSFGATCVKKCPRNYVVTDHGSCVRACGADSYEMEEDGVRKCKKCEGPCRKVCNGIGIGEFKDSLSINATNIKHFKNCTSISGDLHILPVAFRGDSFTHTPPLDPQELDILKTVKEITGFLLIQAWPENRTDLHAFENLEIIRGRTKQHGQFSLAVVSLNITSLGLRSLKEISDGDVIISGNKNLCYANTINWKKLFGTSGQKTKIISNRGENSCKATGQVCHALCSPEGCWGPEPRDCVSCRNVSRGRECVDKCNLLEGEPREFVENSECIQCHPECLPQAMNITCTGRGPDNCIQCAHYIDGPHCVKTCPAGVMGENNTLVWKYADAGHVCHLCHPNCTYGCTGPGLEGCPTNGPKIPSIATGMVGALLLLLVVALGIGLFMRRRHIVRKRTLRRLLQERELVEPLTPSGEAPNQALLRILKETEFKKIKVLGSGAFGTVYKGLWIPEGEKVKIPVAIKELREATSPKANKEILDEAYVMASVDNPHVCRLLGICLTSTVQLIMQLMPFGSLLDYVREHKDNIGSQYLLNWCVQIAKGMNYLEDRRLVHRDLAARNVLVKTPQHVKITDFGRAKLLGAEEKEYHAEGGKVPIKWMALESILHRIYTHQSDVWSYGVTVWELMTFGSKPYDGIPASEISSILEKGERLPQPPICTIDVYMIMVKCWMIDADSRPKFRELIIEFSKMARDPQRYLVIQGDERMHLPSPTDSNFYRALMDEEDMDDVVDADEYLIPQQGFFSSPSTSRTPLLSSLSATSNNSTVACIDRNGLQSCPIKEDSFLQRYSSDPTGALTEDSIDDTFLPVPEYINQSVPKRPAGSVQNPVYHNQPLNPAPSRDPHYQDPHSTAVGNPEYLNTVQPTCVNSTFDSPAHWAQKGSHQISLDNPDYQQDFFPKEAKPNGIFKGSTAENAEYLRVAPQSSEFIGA
UniProt P00533, with tags, fused parts or gaps DEL746-750/C797S limits assumed: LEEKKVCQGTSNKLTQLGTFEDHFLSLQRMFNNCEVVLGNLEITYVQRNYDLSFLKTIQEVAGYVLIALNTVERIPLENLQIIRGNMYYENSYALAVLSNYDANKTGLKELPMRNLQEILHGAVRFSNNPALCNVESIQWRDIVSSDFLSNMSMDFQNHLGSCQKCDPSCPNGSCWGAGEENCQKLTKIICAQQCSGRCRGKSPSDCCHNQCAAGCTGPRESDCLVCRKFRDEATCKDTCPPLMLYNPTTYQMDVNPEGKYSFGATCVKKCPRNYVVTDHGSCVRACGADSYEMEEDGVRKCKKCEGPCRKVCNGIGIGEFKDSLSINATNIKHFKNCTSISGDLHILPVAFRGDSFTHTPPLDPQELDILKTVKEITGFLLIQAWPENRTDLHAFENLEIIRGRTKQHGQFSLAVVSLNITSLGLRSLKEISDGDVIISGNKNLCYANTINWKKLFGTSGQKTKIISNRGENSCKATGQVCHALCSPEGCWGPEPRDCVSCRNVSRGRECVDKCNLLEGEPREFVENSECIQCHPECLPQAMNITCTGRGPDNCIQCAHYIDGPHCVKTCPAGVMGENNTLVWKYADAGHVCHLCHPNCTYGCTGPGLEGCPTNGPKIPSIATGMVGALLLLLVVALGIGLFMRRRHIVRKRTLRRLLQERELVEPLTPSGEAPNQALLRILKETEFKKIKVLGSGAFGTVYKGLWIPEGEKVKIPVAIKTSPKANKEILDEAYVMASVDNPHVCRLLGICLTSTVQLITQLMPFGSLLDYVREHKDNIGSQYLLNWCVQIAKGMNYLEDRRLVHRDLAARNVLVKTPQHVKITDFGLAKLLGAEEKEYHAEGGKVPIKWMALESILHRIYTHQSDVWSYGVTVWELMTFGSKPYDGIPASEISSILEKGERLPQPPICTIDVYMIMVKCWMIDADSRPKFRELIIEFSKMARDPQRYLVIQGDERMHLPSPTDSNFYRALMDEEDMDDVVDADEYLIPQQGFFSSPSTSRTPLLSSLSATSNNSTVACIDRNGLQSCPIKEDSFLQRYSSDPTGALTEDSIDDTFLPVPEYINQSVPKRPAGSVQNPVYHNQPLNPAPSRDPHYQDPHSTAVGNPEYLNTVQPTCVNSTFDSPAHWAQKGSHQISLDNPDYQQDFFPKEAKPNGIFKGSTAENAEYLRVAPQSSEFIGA
UniProt P00533, with tags, fused parts or gaps DEL746-750/T790M/C797S limits assumed: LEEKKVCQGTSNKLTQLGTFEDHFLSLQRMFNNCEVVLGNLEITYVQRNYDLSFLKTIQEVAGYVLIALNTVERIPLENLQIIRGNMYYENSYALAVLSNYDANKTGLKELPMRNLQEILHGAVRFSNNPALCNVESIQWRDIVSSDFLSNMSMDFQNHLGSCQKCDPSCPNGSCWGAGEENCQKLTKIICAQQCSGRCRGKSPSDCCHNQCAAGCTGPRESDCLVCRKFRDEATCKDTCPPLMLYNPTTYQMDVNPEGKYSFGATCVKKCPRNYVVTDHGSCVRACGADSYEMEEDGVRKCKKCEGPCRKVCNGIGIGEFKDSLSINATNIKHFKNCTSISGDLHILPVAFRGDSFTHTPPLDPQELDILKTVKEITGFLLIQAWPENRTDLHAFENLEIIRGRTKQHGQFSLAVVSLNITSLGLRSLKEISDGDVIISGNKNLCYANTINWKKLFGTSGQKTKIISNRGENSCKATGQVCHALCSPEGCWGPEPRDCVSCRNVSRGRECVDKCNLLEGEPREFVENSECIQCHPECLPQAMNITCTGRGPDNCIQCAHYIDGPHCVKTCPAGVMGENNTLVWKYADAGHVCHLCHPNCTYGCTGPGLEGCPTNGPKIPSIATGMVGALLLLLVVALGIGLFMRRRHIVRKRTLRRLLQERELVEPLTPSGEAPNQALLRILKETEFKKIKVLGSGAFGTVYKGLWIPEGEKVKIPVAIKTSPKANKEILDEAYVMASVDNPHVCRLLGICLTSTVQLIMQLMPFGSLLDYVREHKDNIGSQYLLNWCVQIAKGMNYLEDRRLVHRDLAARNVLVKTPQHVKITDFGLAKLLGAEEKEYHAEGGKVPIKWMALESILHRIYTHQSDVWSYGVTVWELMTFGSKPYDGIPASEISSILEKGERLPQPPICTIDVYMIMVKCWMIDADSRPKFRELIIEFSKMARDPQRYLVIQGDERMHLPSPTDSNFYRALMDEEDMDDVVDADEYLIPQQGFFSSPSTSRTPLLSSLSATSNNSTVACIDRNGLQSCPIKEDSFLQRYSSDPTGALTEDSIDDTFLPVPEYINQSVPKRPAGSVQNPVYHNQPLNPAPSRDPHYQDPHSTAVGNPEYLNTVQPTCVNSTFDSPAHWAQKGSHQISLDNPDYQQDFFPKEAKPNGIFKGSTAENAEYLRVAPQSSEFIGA

| SMILES | IC50 [1, 6] [nM] | IC50 [1, 7] [nM] | IC50 [2, 8] [nM] | IC50 [2, 9] [nM] | IC50 [3, 10] [nM] | IC50 [3, 11] [nM] | IC50 [4, 12] [nM] | IC50 [4, 13] [nM] | IC50 [5, 14] [nM] | IC50 ([5]; read-out: EGFR WT IC50, ATP Km) [nM] | IC50 [1, 15] [nM] | IC50 [2, 16] [nM] | IC50 [2, 17] [nM] | IC50 [3, 18] [nM] | IC50 [3, 19] [nM] | IC50 [4, 20] [nM] | IC50 [4, 21] [nM] | IC50 [5, 22] [nM] | IC50 [5, 23] [nM] |
| --- | --- | --- | --- | --- | --- | --- | --- | --- | --- | --- | --- | --- | --- | --- | --- | --- | --- | --- | --- |
| C[C@H]1CCOc2c(cnn2C)-c2nccc(n2)Nc2cc(c(-c3cc(N4CC(CC(C)(F)F)C4)ccn3)cn2)N1 | 10 to 100 | < 10 | 100 to 1000 | < 10 | > 1000 | 100 to 1000 | > 1000 | 100 to 1000 | > 1000 | 100 to 1000 |  |  |  |  |  |  |  |  |  |
| Cc1nn(C)c2c1-c1nccc(n1)Nc1cc(c(-c3ccc(S(C)(=O)=O)cn3)cn1)N[C@@H](C)CCO2 |  |  |  |  |  |  |  |  |  |  | < 10 | < 10 | < 10 | < 10 | < 10 | 10 to 100 | < 10 | > 1000 | < 10 |
| Cc1nn(C)c2c1-c1nccc(n1)Nc1cc(c(-c3ccc(S(C)(=O)=O)cn3)cn1)NCC[C@@H](C)O2 |  |  |  |  |  |  |  |  |  |  | < 10 | < 10 | < 10 | < 10 | < 10 | < 10 | < 10 | > 1000 | < 10 |
| Cc1nn(C)c2c1-c1nccc(n1)Nc1cc(c(-c3ccc(C(C)(C)O)cn3)cn1)N[C@@H](C)CCO2 | < 10 | < 10 | < 10 | < 10 | < 10 | < 10 | 10 to 100 | < 10 | > 1000 | 100 to 1000 |  |  |  |  |  |  |  |  |  |
| Cc1nn(C)c2c1-c1nccc(n1)Nc1cc(c(-c3cccc(C(C)(C)O)n3)cn1)N[C@@H](C)CCO2 |  |  |  |  |  |  |  |  |  |  | < 10 | 10 to 100 | < 10 | 10 to 100 | 10 to 100 | 100 to 1000 | 10 to 100 | > 1000 | 100 to 1000 |
| CN1CCCOc2c(cnn2C)-c2nccc(n2)Nc2cc1c(-c1ccn(C(F)F)n1)cn2 | 100 to 1000 | < 10 | 100 to 1000 | < 10 | > 1000 | > 1000 | > 1000 | > 1000 | > 1000 | > 1000 |  |  |  |  |  |  |  |  |  |
| C[C@H]1CCOc2c(cnn2C)-c2nccc(n2)Nc2cc(c(-c3ncc(CN4CC(CC(C)(F)F)C4)cc3F)cn2)N1 | < 10 | < 10 | < 10 | < 10 | < 10 | < 10 | 10 to 100 | < 10 | > 1000 | < 10 |  |  |  |  |  |  |  |  |  |
| C[C@H]1CCNc2cc(ncc2-c2ccn(CC(F)(F)F)n2)Nc2ccnc(n2)-c2cnn(C)c2O1 | < 10 | < 10 | < 10 | < 10 | < 10 | < 10 | 10 to 100 | < 10 | > 1000 | < 10 |  |  |  |  |  |  |  |  |  |
| C[C@H]1CCOc2c(cnn2C)-c2nccc(n2)Nc2cc(c(-c3cnc(OC(F)F)cn3)cn2)N1 | < 10 | < 10 | 10 to 100 | < 10 | > 1000 | 100 to 1000 | > 1000 | 10 to 100 | > 1000 | > 1000 |  |  |  |  |  |  |  |  |  |
| Cc1nn(C)c2c1-c1nccc(n1)Nc1cc(c(-c3ncc(CN4CC5(CC(O)C5)C4)cc3F)cn1)N[C@@H](C)CCO2 |  |  |  |  |  |  |  |  |  |  | < 10 | < 10 | < 10 | 10 to 100 | < 10 | 10 to 100 | < 10 | > 1000 | 10 to 100 |
| Cc1nn(C)c2c1-c1nccc(n1)Nc1cc(c(-c3ccn(C(F)F)n3)cn1)O[C@@H](C)CCO2 | > 1000 | > 1000 | > 1000 | > 1000 | > 1000 | > 1000 | > 1000 | > 1000 | > 1000 | > 1000 |  |  |  |  |  |  |  |  |  |
| Cc1nn(C)c2c1-c1nccc(n1)Nc1cc(c(-c3ccc(C(F)F)cn3)cn1)NCC[C@H](C)O2 | < 10 | < 10 | 10 to 100 | < 10 | 10 to 100 | < 10 | 10 to 100 | 10 to 100 | > 1000 | > 1000 |  |  |  |  |  |  |  |  |  |
| C[C@H]1CCNc2cc(ncc2-c2ccc(OC(F)F)cn2)Nc2ccnc(n2)-c2cnn(C)c2O1 | 10 to 100 | 10 to 100 | 10 to 100 | < 10 | 100 to 1000 | 10 to 100 | > 1000 | 100 to 1000 | > 1000 | 100 to 1000 |  |  |  |  |  |  |  |  |  |
| Cc1nn(C)c2c1-c1nccc(n1)Nc1cc(c(-c3ncc(CN4CCOCC4)cc3F)cn1)NCC[C@H](C)O2 |  |  |  |  |  |  |  |  |  |  | < 10 | < 10 | < 10 | 10 to 100 | 10 to 100 | 100 to 1000 | 10 to 100 | > 1000 | 10 to 100 |
| Cn1ncc2c1OCCC(C)(C)Nc1cc(ncc1-c1ccn(C(F)F)n1)Nc1ccnc-2n1 | 10 to 100 | < 10 | 10 to 100 | < 10 | > 1000 | 100 to 1000 | > 1000 | 100 to 1000 | > 1000 | 100 to 1000 |  |  |  |  |  |  |  |  |  |

Source: patent publication US20260384450A1, “MACROCYCLIC AMINOPYRIDINE COMPOUNDS AS EGFR INHIBITORS” (published 2026)
